Source: US20240293349A1, “USE OF AN RXR AGONIST IN TREATING DRUG RESISTANT HER2+ CANCERS” (Io Therapeutics, Inc., priority 2022, published 2024)

Legend:
Type in all cases: cell-based
SkBr3 cells = test: Inhibition of breast cancer cell growth, DAPI nuclei count; conditions: 6 days
Description: (§1) Two breast cancer cell lines, MCF7 and SkBr3, were cultured in the presence of 0, 10, 100, or 1000 nM IRX4204 and 0, 0.1, 1, or 10 μg/ml trastuzumab. MCF7 is an ER^+ PR^+ Her2^− cell line. SkBr3 is an ER^− PR^− Her2^+ cell line. Cells were plated in 96 well optical plates and IRX-4204 and trastuzumab were added 24 hours after cell plating. After a further 6 days, the cells were fixed with 4% paraformaldehyde in phosphate buffered saline (PBS). Nuclei were then stained with DAPI and imaged with the MetaXpress® microscope (Molecular Devices, San Jose, CA). Cell nuclei were segmented and then counted by defining pixel intensity over background and object size, using the algorithm of the MetaXpress® image analysis software. Experimental data points were performed at a minimum of quadruplicate, and results were reported as average cell count ±standard deviation (SD).
To assess if this improved growth inhibition effect was synergistic, the percent inhibition observed for the highest concentrations of the combined therapeutic agents was compared to the percent inhibition that would be expected for the combination based on the observed inhibition of the therapeutic agents used alone, if the agents acting independently, that is, without interaction (see Table 1). That is, PAE=(FE1+((1−FE1)×FE2))×100, where PAE is the predicted additive effect, FE1 is the observed fractional effect of a 1st treatment, and FE2 is the observed fractional effect of a 2nd treatment.
The experiment of Example 1 was repeated using the Her2 kinase inhibitors lapatinib or neratinib instead of trastuzumab at 0, 0.1, 1, or 10 nM. […]
To assess if this improved growth inhibition effect was synergistic, the percent inhibition observed for the highest concentrations of the combined therapeutic agents was compared to the percent inhibition that would be expected for the combination based on the observed inhibition of the therapeutic agents used alone, if the agents acting independently, that is, without interaction (see Tables 2-4).

MCF7 cells = test: as above; conditions: Her2− MCF7 cells; IRX4204 0-1000 nM, trastuzumab 0-10 μg/ml; 6 days
Description: as §1
The experiment of Example 1 was repeated using the Her2 kinase inhibitors lapatinib or neratinib instead of trastuzumab at 0, 0.1, 1, or 10 nM. Additionally the panel of breast cancer cell lines was expanded to also include the ER^+ PR^+ Her2^+ cell line BT474 and the ER^+ PR^− Her2^+ cell line MDA-MB-361.

[1] = system: HCC1954 human breast cancer cells; test: Inhibition of growth of a Her2-targeted agent resistant Her2+ cell line, DAPI nuclei count; conditions: HCC1954, as compared to SkBr3
Description: HCC1954 is Her2^+ cancer cell line derived from a ductal carcinoma of the breast. As compared to the SkBr3 cell line used in Example 1 above, it is resistant to neratinib, lapatinib, and tucatinib. It is also resistant to anti-Her2 monoclonal antibodies, such as trastuzumab. […] Among Her2-amplified cell lines, HCC1954 is the most resistant to neratinib with an IC50>100 nM (compared to 7 nM SkBr3 or 20 nM AU565).
HCC1954 human breast cancer cells were seeded at 3000 cells per well in 96-well plates and treated with neratinib [1 or 10 nM] or DMSO (0.1%) in combination with IRX4204 [10, 100, or 1000 nM]. After 6 days of treatment, cells were fixed with 4% paraformaldehyde. Nuclei were stained with DAPI, imaged using ImageXpress® Pico (Molecular Devices) and counted using CellReporterXpress® Analysis Software (FIGS. 4A-B) Each data point represents six replicates. Statistical significance was determined using the Bonferroni-Dunn method of multiple t-tests. Each day was analyzed individually, without assuming a consistent SD (*p<0.01).
The experiment was also conducted using tucatinib or lapatinib in place of neratinib. […] The same general pattern of inhibitory effect is observed as with neratinib. […] As with neratinib, there is clearly a synergistic effect from the combination of these kinase inhibitors with IRX4204.

trastuzumab [Herceptin]
growth inhibitory effect (FIG. 1B), in words (SkBr3 cells; Her2+ SkBr3 cells, IRX4204 0-1000 nM, trastuzumab 0-10 μg/ml): moderate growth inhibitory effect
% Inhibition (SkBr3 cells; SkBr3 cells, IRX4204 1000 nM, Herceptin 1000 ng, alone or combined): 55.4%
DAPI Nuclei Count (SkBr3 cells; SkBr3 cells, IRX4204 1000 nM, Herceptin 1000 ng, alone or combined, control 25958): 11582
growth inhibitory effect (FIG. 1A), in words (MCF7 cells): neither agent had more than marginal effect
resistance of the cell line to the agent used individually [1]: resistant
